{
  "source": "patent US5885998A",
  "about": "(priority 1998, dated 1999)",
  "biological_target": "nicotinic receptors (L-[3H]nicotine binding), rat brain membrane preparations",
  "parameters": "species or system rat (Sprague-Dawley)",
  "data": [
    {"compound": "CNCC/C=C/c1cncnc1", "note": "[Sample No. 2, (E)-N-methyl-4-(5-pyrimidinyl)-3-butene-1-amine]", "values": [
      {"measurement": "Ki", "value": 86, "unit": "nM"}
    ]}
  ]
}
